Among the data in PubChem BioAssay AID522 (The Scripps Research Institute Molecular Screening Center, 2006) are activation values, retold here.

Chains of the proteins cited; added tags and fusions are not shown.
UniProt Q13285, whole entry: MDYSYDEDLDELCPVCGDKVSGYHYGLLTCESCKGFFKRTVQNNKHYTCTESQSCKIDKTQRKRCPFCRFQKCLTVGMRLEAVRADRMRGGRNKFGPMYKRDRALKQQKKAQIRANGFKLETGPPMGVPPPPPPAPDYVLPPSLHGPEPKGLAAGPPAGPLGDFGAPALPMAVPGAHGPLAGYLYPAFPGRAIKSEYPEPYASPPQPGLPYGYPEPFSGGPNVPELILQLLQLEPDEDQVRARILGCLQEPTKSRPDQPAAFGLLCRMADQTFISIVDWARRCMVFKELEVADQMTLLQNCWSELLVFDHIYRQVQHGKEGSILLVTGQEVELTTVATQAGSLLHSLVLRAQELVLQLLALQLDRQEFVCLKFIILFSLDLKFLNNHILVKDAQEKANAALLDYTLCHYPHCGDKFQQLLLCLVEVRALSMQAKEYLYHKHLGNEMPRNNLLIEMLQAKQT

The list shows a part of the results, in another mix than the full data. Active and inactive are the calls of the source.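 The calls were made as follows: active = activation above the mean activation of all tested compounds plus 3 SD (cut at about 50% in these data); inactive = the rest.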

The target of this assay is Steroidogenic factor 1 (Homo sapiens) (UniProt Q13285). Kind of assay: activators of human SF-1, primary screen, cell-based, CHO-K1, Gal4-SF-1 LBD, luciferase luminescence (AID 522). To be noted: CHO-K1 Gal4-SF-1 LBD luciferase reporter; at 10 µM; stronger effect = higher value; % increase over DMSO SF-1-specific signal. The essentials:
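Assay system – CHO-K1 cells with Gal4–hSF-1 LBD chimera plus Gal4-driven luciferase · Quantity – 4,000 cells per well · Times – compound added 1 h post-seeding, 20 h exposure at 37 °C, 5% CO2 · Measured by – luciferase light emission · Benchmarks – DMSO and mock-transfected background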
With `CP(=O)(Nc1ccccn1)Oc1ccccc1` (stereo not drawn), the activation is inactive: -4%. `Cc1nc2ccc3ccccc3c2o1.O=[N+]([O-])c1cc([N+](=O)[O-])c(O)c([N+](=O)[O-])c1`: the activation is inactive: 11.2%. `COc1ccccc1OP(C)(=O)Nc1ccc(C)c(C)c1` (stereo not drawn): the activation is inactive: -3.5%.

Consider `COc1ccccc1OP(C)(=O)Nc1c(C)n(C)n(-c2ccccc2)c1=O` (stereo not drawn), for which the activation is inactive: 1.1%. The same measure for `CP(=O)(Oc1ccccc1)N1CCOC1=O` (stereo not drawn): inactive: -24.1%. The same measure for `CCN(CC)CC(O)COC(=O)C(O)(c1ccccc1)C1CCCCC1` (stereo not drawn): inactive: 10.8%; for `Cc1ccccc1NP(C)(=O)Nc1ccccc1C`: inactive: -4.2%. As for `CP(=O)(Nc1ccc2c(c1)OCCO2)Oc1ccccc1` (stereo not drawn), the activation was inactive: 10.6%.

Take `CCOP(C)(=S)SCC(=O)NC(C)(CC)C(=O)O` (stereo not drawn): the activation is inactive: 0.7%. The same measure for `CN(C)CCOC(=O)C(O)(c1ccccc1)C1CCCCC1` (stereo not drawn): inactive: -14.7%; for `CP(=O)(Nc1ccccc1F)Oc1ccccc1` (stereo not drawn): inactive: -18.1%; for `Cc1ccc(C)c(NP(C)(=O)Oc2ccccc2)c1` (stereo not drawn): inactive: 7.3%. For `Cc1nc2ccc3ccccc3c2s1.O=[N+]([O-])c1cc([N+](=O)[O-])c(O)c([N+](=O)[O-])c1` the value was inactive: -18.4%; for `CCOP(C)(=S)SCC(=O)NC(C)C(=O)O` (stereo not drawn), inactive: 8.1%; for `CP(=O)(NC(=O)Nc1ccccc1)Oc1ccccc1` (stereo not drawn), inactive: 0.5%. For `CP(=S)(Nn1cnnc1)Oc1ccccc1` (stereo not drawn) the value was inactive: 0.2%. For `Cc1ccc(NP(C)(=O)Oc2ccccc2)c(C)c1` (stereo not drawn), the activation is inactive: -7.2%. The same measure for `COc1ccccc1OP(C)(=O)Nc1ccc(C)cc1` (stereo not drawn): inactive: 17%.
